Experimental data: patent publication US20230016182A1, “EO/PO-MODIFIED 9-PHENYLACRIDINE PHOTOSENSITIZERS AND APPLICATION THEREOF” (Changzhou Tronly New Electronic Materials Co., Ltd., priority 2019, published 2023)

Experiment: Photosensitizer solubility test in 2-butanone and PGMEA
Type: physicochemical
Conditions: Test temperature 25° C.; solvent PGMEA
Protocol: The solubility performances of the above products C1-C6 were tested, using 2-butanone and PGMEA as solvent represents. Among them, 9-phenylacridine (denoted as C7, produced by CHANGZHOU TRONLY NEW ELECTRONIC MATERIALS CO., LTD.) was used for comparison.

**Q.** Which “Solubility in PGMEA” value does the source give for `COCCOCCOCCOc1ccc(-c2c3ccccc3nc3ccccc23)cc1` [Product C1] here?
**A.** 13.53 g
